Experimental data as given in patent USRE47475E1, “Selective agents for pain suppression” (WiSys Technology Foundation, Inc., priority 2002, dated 2019).

Biological target: T1, GABAA/α1 (α1β3γ2 GABAA receptor) (Homo sapiens, UniProt P14867+P18507)
T1 construct: expressed in transfected cells
Assay: competitive binding assay with [3H]flunitrazepam
Conditions: Table 4, stereoisomers; read-out: Binding Affinity at GABAA/α1

## C#Cc1ccc2c(c1)C(c1ccccc1F)=NC(C)c1c(C(=O)OCC)ncn1-2 (single isomer, unassigned) [SH-053-2′F-S-CH3, 8-Ethynyl-6-(2-fluorophenyl)-4-methyl-4H-2,5,10b-triazabenzo[e]azulene-3-carboxylic acid ethyl ester]
  Ki: 468 nM
